Measured values as given in article PMC8048383 (Cancer cell, 2021).

Test system: SCLC cells
Assay: MIPE 5.0 library combination screen with indotecan, pairs ranked by ExcessHSA
Assay type: cell-based, human

## C[C@@H]1COCCN1c1cc(-c2ccnn2C)c2ccnc(-c3ccn[nH]3)c2n1 [BAY-1895344]
  rank of TOP1 inhibitor-drug pair by ExcessHSA: 1
